The entries are a selection whose mix differs from that of the whole data set. The source made the active and inactive calls. Calls follow the shape of the dose curve; as a rule, active = well fitted activation curve with a large enough effect; inconclusive = small, poorly fitted or top-dose-only effect; inactive = no such curve, though single readings can be large or run the other way.
Assay: qHTS for Inducers of the Endoplasmic Reticulum Stress Response (ERSR) in Human Glioma: qHTS; also: % of control where 0% means no effect; nearly all actives have a fitted effect of over 35% in size
Conditions: U87-MG GRP78 promoter luciferase reporter, 16 h; active compounds read high

SMILES | activation
O=C(OC1CN2CCC1CC2)C1c2ccccc2C=Cc2ccccc21 (stereo unspecified) | inactive: -3.99%
O=C(NCC1(N2CCOCC2)CCCCC1)c1cc(Br)ccc1Cl | inactive: -4.19%
COc1cc(C(=O)NCC2(N3CCOCC3)CCCCC2)cc(OC)c1C | inactive: -3.16%
CCCCn1nnnc1C(c1ccccc1)N1CCC(n2c(=O)[nH]c3ccccc32)CC1 (stereo unspecified) | inactive: -4.67%
O=c1[nH]c2ccccc2n1C1CCN(C(c2ccnc3ccccc23)c2nnnn2C2CCCC2)CC1 (stereo unspecified) | inactive: -0.331%
COc1ccc(C(=O)NCC2(N3CCOCC3)CCCCC2)cc1OC | inactive: -4.06%
O=Cc1ccc(N(CCCl)CCCl)cc1 | inactive: 0.255%
O=c1[nH]c2ccccc2n1C1CCN(C(c2cccs2)c2nnnn2C2CCCCC2)CC1 (stereo unspecified) | inactive: -5.83%
CCC(CO)(C(=O)OC1CN2CCC1CC2)c1ccccc1 (stereo unspecified) | inactive: 1.61%
COc1cccc(C(=O)N(c2cc(C)cc(C)c2)C2CCN(C(=O)OC(C)(C)C)CC2)c1 | inactive: -5.32%
COc1cc(OC)cc(C(=O)NCC2(N3CCOCC3)CCCCC2)c1 | inactive: -2.59%
COc1cccc(C(c2nnnn2C2CCCC2)N2CCC(n3c(=O)[nH]c4ccccc43)CC2)c1OC (stereo unspecified) | inactive: -2.66%
COc1cc(C(=O)NCC2(N3CCOCC3)CCCCC2)cc(OC)c1OC | inactive: -3.29%
CN1CCC(Nc2ccc(Cl)cc2)CC1 | inactive: -0.531%
CN1CCC(Nc2ccc(F)c(Cl)c2)CC1 | inactive: -2.41%
CCOc1ncccc1C(=O)NCC1(N2CCOCC2)CCCCC1 | inactive: -3.82%
O=c1[nH]c2ccccc2n1C1CCN(C(c2cc3ccccc3o2)c2nnnn2C2CCCC2)CC1 (stereo unspecified) | inactive: -3.42%
CCCOc1ccc(C(=O)NCC2(N(C)C)CCCCC2)cc1 | inactive: -0.605%
ClCCN(CCCl)c1ccccc1 | inactive: -1.41%
ClCCN(CCCl)c1ccc(C=C2C=CC=C2)cc1 | inactive: -7.46%
O=C(O)C1(Nc2ccccc2)CCN(Cc2ccccc2)CC1 | inactive: -3.13%

SMILES | activation
CC(C)(C)OC(=O)N1CCC(Nc2ccccc2)CC1 | inactive: -1.33%
CCN1CCC(Nc2cccc(F)c2)CC1 | inactive: -1.66%
COc1ccc(C(c2nnnn2C2CCCCC2)N2CCC(n3c(=O)[nH]c4ccccc43)CC2)cc1 (stereo unspecified) | inactive: -2.79%
CC(C)(C)n1nnnc1C(c1ccnc2ccccc12)N1CCC(n2c(=O)[nH]c3ccccc32)CC1 (stereo unspecified) | inactive: -1.9%
Cc1ccccc1NC1(C#N)CCN(Cc2ccccc2)CC1 | inactive: -3.84%
CN(C)c1ccc(C(=O)NCC2(N3CCCCC3)CCCCC2)cc1 | inactive: 1.26%
Cn1c(=O)[nH]cc(N(CCCl)CCCl)c1=O | inactive: -4.43%
O=C(NCC1(N2CCCCC2)CCCCC1)c1ccco1 | inactive: -1.95%
CC(C)(C)c1ccc(C(=O)NCC2(N3CCOCC3)CCCCC2)cc1 | inactive: -2.34%
Cc1ccccc1C(=O)NCC1(N(C)C)CCCCC1 | inactive: 6.33%
COc1cc(OC)cc(C(=O)NCC2(N3CCCCC3)CCCCC2)c1 | inactive: 2.65%
O=c1[nH]c2ccccc2n1C1CCN(C(c2ccnc3ccccc23)c2nnnn2C2CCCCC2)CC1 (stereo unspecified) | inactive: -4.45%
CCC(c1nnnn1C1CCCCC1)N1CCC(n2c(=O)[nH]c3ccccc32)CC1 (stereo unspecified) | inactive: -2.73%
CN(C)C1(CNC(=O)c2ccc(C(C)(C)C)cc2)CCCCC1 | inactive: -2.28%
COc1cccc(C(c2nnnn2C2CCCCC2)N2CCC(n3c(=O)[nH]c4ccccc43)CC2)c1OC (stereo unspecified) | inactive: -4.34%
CC(=O)N(c1ccccc1)C1CCNCC1 | inactive: -2.06%
Cc1ccc(NC2(C#N)CCN(Cc3ccccc3)CC2)cc1 | inactive: -1.67%
Fc1ccccc1NC1CCN(Cc2ccccc2)CC1 | inactive: -2.92%
Cc1ccc(Nc2c([N+](=O)[O-])cc([N+](=O)[O-])cc2[N+](=O)[O-])cc1 | inactive: -5.17%
Cc1ccc(C(=O)NCC2(N3CCCCC3)CCCCC2)o1 | inactive: -3.88%

From PubChem BioAssay AID602332 (National Center for Advancing Translational Sciences (NCATS), 2012)
